Measurements as given in ChEMBL document CHEMBL1201862, “PubChem BioAssay data set” (2004).
Where a name gives a salt, the structure may show the parent alone. Calls of active or inactive are those of the source.

By UniProt entry, the sequences of proteins in these tests, tags left out. Where a name states a change or a piece, a line headed by the entry shows the natural chain unless it says otherwise.
UniProt P35372, whole entry: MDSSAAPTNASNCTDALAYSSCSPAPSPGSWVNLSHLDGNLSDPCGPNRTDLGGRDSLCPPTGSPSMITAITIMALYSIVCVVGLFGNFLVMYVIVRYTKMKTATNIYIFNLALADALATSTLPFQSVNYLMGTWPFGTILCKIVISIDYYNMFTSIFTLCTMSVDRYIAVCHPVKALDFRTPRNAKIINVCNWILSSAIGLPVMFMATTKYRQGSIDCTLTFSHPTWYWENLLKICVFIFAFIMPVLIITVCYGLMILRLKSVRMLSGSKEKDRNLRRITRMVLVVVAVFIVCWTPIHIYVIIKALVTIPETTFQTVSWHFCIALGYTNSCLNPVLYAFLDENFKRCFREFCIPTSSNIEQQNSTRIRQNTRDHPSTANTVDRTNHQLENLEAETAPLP
UniProt P35363, whole entry: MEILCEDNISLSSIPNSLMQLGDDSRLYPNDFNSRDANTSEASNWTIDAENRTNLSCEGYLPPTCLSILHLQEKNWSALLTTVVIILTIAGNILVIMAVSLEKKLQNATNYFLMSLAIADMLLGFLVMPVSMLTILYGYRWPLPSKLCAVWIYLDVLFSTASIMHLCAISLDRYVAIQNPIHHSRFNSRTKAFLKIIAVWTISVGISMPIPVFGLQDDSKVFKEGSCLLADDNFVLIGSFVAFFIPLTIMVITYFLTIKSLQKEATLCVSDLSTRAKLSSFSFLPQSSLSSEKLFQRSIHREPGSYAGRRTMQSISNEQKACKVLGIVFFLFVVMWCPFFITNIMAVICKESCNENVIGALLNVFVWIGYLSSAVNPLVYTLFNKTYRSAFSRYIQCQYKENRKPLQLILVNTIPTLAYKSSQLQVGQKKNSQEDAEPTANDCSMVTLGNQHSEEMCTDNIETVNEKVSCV
UniProt P54578: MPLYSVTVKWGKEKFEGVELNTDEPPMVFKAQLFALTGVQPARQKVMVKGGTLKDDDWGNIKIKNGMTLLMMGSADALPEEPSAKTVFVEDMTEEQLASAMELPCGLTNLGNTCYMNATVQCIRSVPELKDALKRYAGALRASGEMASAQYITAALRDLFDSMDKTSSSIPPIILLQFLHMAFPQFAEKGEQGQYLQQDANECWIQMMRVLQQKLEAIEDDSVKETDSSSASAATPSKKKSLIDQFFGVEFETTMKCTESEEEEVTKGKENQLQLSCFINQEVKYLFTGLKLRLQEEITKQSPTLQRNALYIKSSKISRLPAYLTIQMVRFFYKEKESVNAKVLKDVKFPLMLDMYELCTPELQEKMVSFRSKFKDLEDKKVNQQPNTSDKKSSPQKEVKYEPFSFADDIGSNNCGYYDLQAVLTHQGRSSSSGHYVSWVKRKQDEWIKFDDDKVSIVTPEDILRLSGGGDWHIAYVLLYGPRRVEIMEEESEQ

Legend:
Mu-type opioid receptor = Mu-type opioid receptor (Homo sapiens, UniProt P35372); format: functional, cell-based;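 also: U2OS cells with beta-arrestin recruitment to OPRM1 by beta-gal complementation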
[1] = target: 5-hydroxytryptamine receptor 2A (Mus musculus, UniProt P35363); format: functional, cell-based;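 also: CHO-K1 cells with tagged receptor and beta-arrestin; agonist potency measured as compound-induced activation of the receptor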
[2] = target: Ubiquitin carboxyl-terminal hydrolase 14 (Homo sapiens, UniProt P54578)
[3] = tested on: Streptococcus sp. 'group A'; test: growth inhibition of control SK(-) GAS strain, dose response, counter-screen for streptokinase expression inhibitor project, luminescence, kanamycin, BacTiterGlo, confirmation (AID 1900); format: functional, organism-based
Streptococcus = test: Group A Streptococcus viability loss, dose response, counter-screen for streptokinase expression inhibitor project, luminescence, BacTiterGlo (AID 1915); format: functional, organism-based;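 also: potency for reduction of bacterial viability or growth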

In the case of `Nc1c2c(nc3ccccc13)CCCC2`, the EC50 (Mu-type opioid receptor) is reported as inactive: 92.5 µM and the EC50 [1] is reported as active: 2.66 µM.

For `Cc1cc(C(=O)CN2CCCC2)c(C)n1-c1ccc(F)cc1`, the IC50 [2] was active: 5 µM.

For `CN(C)C(=N)NC(=N)N` [METFORMIN HYDROCHLORIDE], the EC50 [3] was active: 4.08 µM and the EC50 (Streptococcus) was > 50 µM (not active).
